In PMC4447534 (ChemMedChem, 2015):

Test system: T. cruzi (amastigotes)
Settings: selectivity index, Vero cells versus T. cruzi

N#CSCCOc1ccc(Oc2ccccc2)cc1 [WC-9, 4-phenoxyphenoxyethyl thiocyanate, reference compound]
SI (T. cruzi): 16.5
